scFv variants of Ab-95 (light chain) against a SARS-CoV-2 spike peptide

Target: peptide PDVDLGDISGINAS, taken from heptad repeat 2 (HR2) of SARS-CoV-2 spike.

Each scFv is VH, a (GGGGS)3 linker, VL, as in the parent Ab-95, and differs from it in the CDRs of the light chain only.
VH: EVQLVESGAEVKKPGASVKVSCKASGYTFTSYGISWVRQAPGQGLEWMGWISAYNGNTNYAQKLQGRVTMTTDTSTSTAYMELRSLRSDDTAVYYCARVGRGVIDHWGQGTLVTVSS
VL: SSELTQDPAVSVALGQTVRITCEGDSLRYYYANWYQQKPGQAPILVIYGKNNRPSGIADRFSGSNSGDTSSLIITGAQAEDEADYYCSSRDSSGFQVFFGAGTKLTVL

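The parent was found by panning a naive human phage display library on the peptide. The library (AAYL52) carries one to three amino acid substitutions per variant, with no insertions or deletions. In AlphaSeq, yeast of one mating type display the scFv and yeast of the other type display the target. Mating (16 h, 30 °C) was followed by selection of diploids and sequencing of their barcodes. Scores were corrected for input abundance and mapped to Kd with protein pairs of known affinity run in the same pool. Mating was done three times.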

Substitutions are numbered in sequence along the VL above, starting at 1 (not Kabat).
The Kd shown is the geometric mean over detected replicates; a lower Kd is a better binder.
An entry "nd" has no value in the source: the pair was not observed among the diploids in any replicate. This suggests poor binding but is not conclusive.
The list is sorted by this average, lowest first, undetected variants last.

changes,Kd (apparent),replicates with signal
G24H Y30N S92A,4.2 nM,3/3
Y30G N51T S93C,6.3 nM,3/3
Y29D F95K V97I,22 nM,3/3
Y31D G49S Q96L,30 nM,3/3
E23S R28K N52F,72 nM,3/3
D25M N52D S55E,100 nM,3/3
S26I Y30T V97A,120 nM,3/3
R28A Y29N S88Q,160 nM,3/3
Y31G K50C S93R,180 nM,3/3
R28C Y31G G94Q,210 nM,3/3
R28K Y29M N52T,230 nM,3/3
Y30T R53S F95N,380 nM,3/3
D25K S55I,400 nM,3/3
R28G D91G,530 nM,3/3
G24H R90K S92F,540 nM,1/3
Y29D A32C G94E,550 nM,3/3
R28L Y31S N33Q,560 nM,3/3
R28W S93M Q96T,660 nM,2/3
N52I F95N,710 nM,3/3
K50D S55L Q96K,770 nM,3/3
E23K R53V G94C,810 nM,3/3
N51C S55Y F95P,1.1 µM,3/3
Y29M F98S,1.3 µM,3/3
L27Q N52V F98I,1.5 µM,3/3
D25V S89Y G94P,1.6 µM,3/3
N52H S55R S88N,1.7 µM,1/3
N33H V97S,1.8 µM,1/3
S26V K50I S88I,1.9 µM,1/3
A32F R90I F95K,2.3 µM,2/3
N51H S89Y F95T,2.7 µM,1/3
K50V P54K S88N,3.0 µM,3/3
D25I Y29N N33K,3.1 µM,1/3
E23N L27H Q96M,3.2 µM,3/3
E23V R28N G49T,4.4 µM,3/3
A32E P54K S88E,4.7 µM,2/3
Y29L N52C F98A,4.8 µM,3/3
G24E N52S R90I,5.2 µM,2/3
R90C V97Q,6.0 µM,3/3
E23C R28F R53L,6.1 µM,3/3
E23T Y30F G94D,6.3 µM,1/3
E23D D25M L27S,6.9 µM,2/3
Y31T G49I,7.4 µM,1/3
S26H N52D F98E,8.1 µM,1/3
R53F S89C F98M,8.5 µM,1/3
N33Q P54S S93A,10 µM,1/3
Y29F S88K Q96N,11 µM,1/3
D91L S93E F95C,11 µM,2/3
D25E N33V D91P,13 µM,1/3
Y29N R53C S92Y,16 µM,2/3
Y30C K50Q S93H,21 µM,1/3
D25S Y29F N33Q,29 µM,2/3
Y31K P54Y S88V,52 µM,2/3
N33K P54F S55A,84 µM,3/3
L27R Y30T P54E,100 µM,2/3
G24Q K50L F95Y,120 µM,2/3
S26E Y30W S89F,150 µM,1/3
D25W N52P S92M,170 µM,1/3
R28Y G49E F98Y,nd,0/3
L27T N52P F98G,nd,0/3
N33Y N51K R53F,nd,0/3
D25K G49F R53A,nd,0/3
G24E F95K V97N,nd,0/3
L27H R53E S93A,nd,0/3
Y30T D91V Q96A,nd,0/3
G24T N51L D91Q,nd,0/3
S55D S89E V97M,nd,0/3

Repeated from above, the 11 best binders with a signal in all replicates:

| changes | Kd (apparent) | replicates with signal |
|---|---|---|
| G24H Y30N S92A | 4.2 nM | 3/3 |
| Y30G N51T S93C | 6.3 nM | 3/3 |
| Y29D F95K V97I | 22 nM | 3/3 |
| Y31D G49S Q96L | 30 nM | 3/3 |
| E23S R28K N52F | 72 nM | 3/3 |
| D25M N52D S55E | 100 nM | 3/3 |
| S26I Y30T V97A | 120 nM | 3/3 |
| R28A Y29N S88Q | 160 nM | 3/3 |
| Y31G K50C S93R | 180 nM | 3/3 |
| R28C Y31G G94Q | 210 nM | 3/3 |
| R28K Y29M N52T | 230 nM | 3/3 |

Three control strains display no target. For library AAYL52, 28% of the pairings with them gave a signal, with a median of 8.2 µM and one signal in twenty below 800 nM, so weak values seen in few replicates may be background.
Parent in this assay: reference entry 200 nM, copy in this library 180 nM.

Data: MIT Lincoln Laboratory AlphaSeq set, Engelhart et al. 2022, doi:10.1038/s41597-022-01779-4, as distributed in FLAb.